From PMC5627017 (Frontiers in Pharmacology, 2017)

Chains of the proteins cited; added tags and fusions are not shown. Lines headed by an entry give the natural chain unless they say otherwise; changes in a name come on top.
UniProt P35367, whole entry: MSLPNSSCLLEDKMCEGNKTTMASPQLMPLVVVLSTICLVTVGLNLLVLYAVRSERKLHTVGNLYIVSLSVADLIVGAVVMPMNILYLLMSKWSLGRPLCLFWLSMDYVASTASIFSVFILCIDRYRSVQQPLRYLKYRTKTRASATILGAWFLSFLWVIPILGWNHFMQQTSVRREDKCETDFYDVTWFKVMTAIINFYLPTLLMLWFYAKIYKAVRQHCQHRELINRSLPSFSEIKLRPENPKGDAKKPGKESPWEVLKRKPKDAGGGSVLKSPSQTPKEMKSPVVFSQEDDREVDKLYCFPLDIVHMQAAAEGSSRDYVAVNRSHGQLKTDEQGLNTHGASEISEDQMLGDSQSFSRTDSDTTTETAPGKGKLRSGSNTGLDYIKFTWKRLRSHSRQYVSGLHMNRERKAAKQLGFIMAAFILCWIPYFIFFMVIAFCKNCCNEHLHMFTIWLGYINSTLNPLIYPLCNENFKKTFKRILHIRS

Assays:
[1] = target: H1R endogenously expressed in HeLa cells (Homo sapiens, UniProt P35367); assay: Receptor recovery of calcium mobilization after antagonist washout; assay type: cell-based; settings: for krec (recovery rate of histamine induced calcium mobilization): 10x Ki overnight pre-incubation; for krec (recovery rate of histamine induced calcium mobilization) / RecT (receptor recovery time), calcium mobilization: washout, 37°C, mean ± SEM of ≥3; for Steady-state recovery (%): fitted Ymax of histamine-induced calcium response after washout, relative to vehicle pre-treated cells; for RecT (receptor recovery time), calcium mobilization: reciprocal of krec
[2] = target: histamine H1 receptor (H1R) (Homo sapiens, UniProt P35367); settings: mean ± SEM of ≥3; for koff (25°C) / kon (25°C): 0-81 min; for pKd,calc (25°C): -log(koff/kon); for RT (residence time): RT = 1/koff, 25°C

krec (recovery rate of histamine induced calcium mobilization) ([1]; 10^-5 M histamine) [min⁻¹]	Steady-state recovery (%) [1] [%]	RecT (receptor recovery time), calcium mobilization ([1]; 10x Ki pre-incubation) [min]	koff (25°C) [2] [s⁻¹]	kon (25°C) [2]	pKd,calc (25°C) [2]	RT (residence time) [2] [min]	SMILES	recovery of histamine induced calcium mobilization after washout (in words) ([1]; 10x Ki pre-incubation, 10^-5 M histamine)
0.22 ± 0.07	100 ± 2	6 ± 2	0.0217 ± 0.005	100 ± 40 10^6⋅min^-1⋅M^-1	7.8 ± 0.1	0.9 ± 0.2	c1ccc(Cc2ccccc2OC2CCNCC2)cc1	
0.24 ± 0.06	98 ± 1	5 ± 2	0.015 ± 0.0033	300 ± 100 10^6⋅min^-1⋅M^-1	8.4 ± 0.1	1.1 ± 0.2	CN(C)CCCOc1ccccc1Cc1ccccc1	full recovery of histamine induced calcium mobilization was already obtained after 1 or 2 data points
